Patent US20080175847A1 (Genentech, published 2008)

The chains behind the UniProt entries cited, without tags or fusion partners. Where a name states a change or a piece, a line headed by the entry shows the natural chain unless it says otherwise. Residues count along the entry.
UniProt Q9JI71, 27-405 limits assumed: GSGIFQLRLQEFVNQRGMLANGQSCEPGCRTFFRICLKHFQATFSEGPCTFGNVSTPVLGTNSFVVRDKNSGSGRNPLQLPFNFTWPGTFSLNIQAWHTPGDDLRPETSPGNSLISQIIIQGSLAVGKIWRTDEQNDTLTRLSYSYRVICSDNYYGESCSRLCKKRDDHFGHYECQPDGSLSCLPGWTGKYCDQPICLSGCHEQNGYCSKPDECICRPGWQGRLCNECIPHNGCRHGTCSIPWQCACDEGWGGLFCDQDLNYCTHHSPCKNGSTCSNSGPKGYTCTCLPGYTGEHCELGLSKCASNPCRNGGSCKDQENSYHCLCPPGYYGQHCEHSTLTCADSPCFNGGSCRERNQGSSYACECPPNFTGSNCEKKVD
UniProt P02769, 25-607 limits assumed: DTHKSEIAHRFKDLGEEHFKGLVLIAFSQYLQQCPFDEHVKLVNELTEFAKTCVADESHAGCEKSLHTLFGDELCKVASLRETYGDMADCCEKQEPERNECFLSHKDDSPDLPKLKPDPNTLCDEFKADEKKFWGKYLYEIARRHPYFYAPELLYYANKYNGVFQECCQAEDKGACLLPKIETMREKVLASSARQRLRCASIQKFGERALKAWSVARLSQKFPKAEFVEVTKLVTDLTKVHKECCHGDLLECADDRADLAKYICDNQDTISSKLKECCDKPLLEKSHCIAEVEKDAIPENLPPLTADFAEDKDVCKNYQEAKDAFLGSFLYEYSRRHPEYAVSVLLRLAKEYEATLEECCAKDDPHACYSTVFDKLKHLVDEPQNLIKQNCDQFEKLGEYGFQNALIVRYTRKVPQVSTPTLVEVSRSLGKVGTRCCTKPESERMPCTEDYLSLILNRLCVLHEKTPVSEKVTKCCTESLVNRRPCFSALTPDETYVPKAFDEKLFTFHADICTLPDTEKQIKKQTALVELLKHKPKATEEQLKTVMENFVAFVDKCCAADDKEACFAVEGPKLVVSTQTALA
UniProt P05187: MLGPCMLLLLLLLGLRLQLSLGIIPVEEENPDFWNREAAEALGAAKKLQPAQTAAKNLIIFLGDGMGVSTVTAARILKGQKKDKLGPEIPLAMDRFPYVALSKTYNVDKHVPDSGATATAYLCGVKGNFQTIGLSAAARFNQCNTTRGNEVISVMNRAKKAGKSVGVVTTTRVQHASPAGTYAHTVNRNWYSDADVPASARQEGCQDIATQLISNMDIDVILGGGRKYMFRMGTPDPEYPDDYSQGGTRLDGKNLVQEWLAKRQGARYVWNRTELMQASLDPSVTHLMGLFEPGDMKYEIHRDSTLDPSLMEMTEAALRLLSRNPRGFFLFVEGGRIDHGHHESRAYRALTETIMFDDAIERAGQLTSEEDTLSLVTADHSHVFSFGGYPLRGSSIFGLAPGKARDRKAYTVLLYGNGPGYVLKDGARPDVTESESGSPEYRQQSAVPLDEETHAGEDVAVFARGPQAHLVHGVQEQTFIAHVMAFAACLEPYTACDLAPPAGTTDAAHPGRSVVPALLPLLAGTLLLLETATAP
UniProt Q9NR61, 26-404 limits assumed: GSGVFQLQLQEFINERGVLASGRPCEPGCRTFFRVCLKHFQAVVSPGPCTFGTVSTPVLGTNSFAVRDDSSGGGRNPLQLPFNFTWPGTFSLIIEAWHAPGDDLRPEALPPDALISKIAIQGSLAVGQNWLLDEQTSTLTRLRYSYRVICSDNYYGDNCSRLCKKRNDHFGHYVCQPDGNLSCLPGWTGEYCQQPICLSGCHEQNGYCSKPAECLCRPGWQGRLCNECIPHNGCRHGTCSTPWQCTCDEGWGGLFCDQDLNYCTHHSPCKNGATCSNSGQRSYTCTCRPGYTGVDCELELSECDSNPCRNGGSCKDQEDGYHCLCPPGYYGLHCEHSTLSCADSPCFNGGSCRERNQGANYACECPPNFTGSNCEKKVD

T1: human DLL1 (purified recombinant protein coated on ELISA plate) (human, UniProt O00548 18-540, limits assumed)
T1 sequence (looked up): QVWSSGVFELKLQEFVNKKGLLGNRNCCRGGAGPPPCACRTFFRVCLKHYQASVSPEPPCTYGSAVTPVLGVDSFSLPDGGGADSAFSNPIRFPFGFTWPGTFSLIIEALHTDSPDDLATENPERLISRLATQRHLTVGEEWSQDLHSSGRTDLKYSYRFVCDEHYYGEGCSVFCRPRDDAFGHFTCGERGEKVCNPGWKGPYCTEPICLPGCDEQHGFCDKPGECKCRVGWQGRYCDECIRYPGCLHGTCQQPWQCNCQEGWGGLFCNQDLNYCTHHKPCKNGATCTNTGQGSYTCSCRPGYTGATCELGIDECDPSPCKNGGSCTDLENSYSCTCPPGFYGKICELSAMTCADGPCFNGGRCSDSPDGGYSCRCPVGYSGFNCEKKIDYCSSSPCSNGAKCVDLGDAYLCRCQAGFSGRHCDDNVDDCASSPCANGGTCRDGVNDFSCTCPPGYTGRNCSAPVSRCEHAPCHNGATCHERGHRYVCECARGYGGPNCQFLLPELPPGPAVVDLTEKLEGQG

T2: DLL1 on transiently transfected 293 cells (Homo sapiens (Human), UniProt O00548 18-723)
T2 construct: also called DLL1 transfected cells
T2 sequence: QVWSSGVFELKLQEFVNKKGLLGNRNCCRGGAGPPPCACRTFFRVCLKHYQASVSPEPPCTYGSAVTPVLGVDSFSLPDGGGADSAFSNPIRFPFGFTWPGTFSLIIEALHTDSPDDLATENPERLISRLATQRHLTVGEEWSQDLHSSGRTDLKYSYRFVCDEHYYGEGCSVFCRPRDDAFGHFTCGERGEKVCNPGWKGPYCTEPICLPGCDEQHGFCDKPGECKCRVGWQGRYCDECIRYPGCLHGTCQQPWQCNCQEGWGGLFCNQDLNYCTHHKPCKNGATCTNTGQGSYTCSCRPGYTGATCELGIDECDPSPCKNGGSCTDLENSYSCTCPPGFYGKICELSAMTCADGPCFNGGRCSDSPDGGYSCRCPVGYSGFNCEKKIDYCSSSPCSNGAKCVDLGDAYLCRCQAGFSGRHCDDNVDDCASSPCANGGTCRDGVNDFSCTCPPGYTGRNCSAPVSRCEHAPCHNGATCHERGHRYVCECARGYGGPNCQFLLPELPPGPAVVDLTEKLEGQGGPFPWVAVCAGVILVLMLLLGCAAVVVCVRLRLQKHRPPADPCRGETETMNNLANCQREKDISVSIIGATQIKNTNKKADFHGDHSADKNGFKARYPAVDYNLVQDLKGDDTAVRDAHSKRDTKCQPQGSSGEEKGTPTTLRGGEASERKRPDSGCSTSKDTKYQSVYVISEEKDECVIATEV


Experiments:
His-tagged murine DLL4 = molecular target: T3, His-tagged murine DLL4 (murine, UniProt Q9JI71 27-405, limits assumed); assay: SPR BIAcore-3000, antibody coupled to CM5 chip, DLL4-His injected, 25 C
T3 construct: domain: ECD5.5; also called murine DLL4-His; murine Delta4 (ECD5.5); not shown: His tag
Protocol: To determine the binding affinity of the anti-DLL4 Mabs, surface plasmon resonance (SRP) measurement with a BIAcore™-3000 was used (BIAcore, Inc., Piscataway, N.J.). Briefly, carboxymethylated dextran biosensor chips (CM5, BIAcore Inc.) were activated with N-ethyl-N′-(3-dimethylaminopropyl)-carbodiimide hydrochloride (EDC) and N-hydroxysuccinimide (NHS) according to the supplier's instructions. […] Next, IM ethanolamine was injected to block unreacted groups. […] Association rates (kon) and dissociation rates (koff) were calculated using a simple one-to-one Langmuir binding model (BIAcore Evaluation Software version 3.2). The equilibrium dissociation constant (Kd) was calculated as the ratio koff/kon.

[1] = molecular target: human JAG1 (purified recombinant protein coated on ELISA plate) (human, UniProt P78504 34-1046, limits assumed); assay: ELISA: coated recombinant protein, bound hIgG detected with anti-human antibody HRP, TMB, OD 450 nm
BSA = molecular target: T4, BSA (bovine, UniProt P02769); assay: as above
T4 construct: Negative control coat

[2] = molecular target: T1, human DLL1 (purified recombinant …); assay: as above
ErbB2-ECD (HER2) = molecular target: T5, ErbB2-ECD (HER2); assay: as above
T5 construct: Coated on the ELISA plate as assay control; also called recombinant ErbB2-ECD

[3] = molecular target: T2, DLL1 on transiently transfected 293 …; assay: FACS of transiently transfected 293 cells, antibody at 2 µg/ml, goat anti-human IgG-PE [top panel]
[4] = molecular target: T6, Jag1 on transiently transfected 293 cells (Homo sapiens (Human), UniProt P78504 34-1218); assay: as above
T6 construct: also called Jag1 transfected cells

[5] = molecular target: T7, DLL4-AP (amino acid 1-404 of DLL4 fused to human placenta alkaline phosphatase) (human, UniProt P05187 23-511); assay: Blocking ELISA: antibody preincubated with DLL4-AP conditioned medium, binding to coated rat Notch1-Fc (0.5 µg/ml), PNPP, OD 405 nm [upper panel]
T7 construct: Used as 293 cell conditioned medium; not shown: C-terminal human placenta alkaline phosphatase reporter and its junction

[6] = molecular target: T7, DLL4-AP (amino acid 1-404 of DLL4 fused …); assay: blocking ELISA: antibody titrated, DLL4-AP binding to coated rrNotch1-Fc
[7] = molecular target: T8, C-terminal His-tagged human DLL4 (amino acid 1-404) (human, UniProt Q9NR61 26-404); assay: Blocking ELISA: antibody with purified DLL4-His, binding to coated rat Notch1-Fc, detected with mouse anti-His mAb, biotinylated goat anti-mouse, streptavidin-AP [lower panel]
T8 construct: range 26-404; the text calls it human DLL4-His; also called DLL4-His; human DLL4-His; not shown: C-terminal His tag

| Binder | Kd (His-tagged murine DLL4) | koff (His-tagged murine DLL4) | kon (His-tagged murine DLL4) | binding result [1] | binding result (BSA) | binding result [2] | binding result (ErbB2-ECD (HER2)) | binding result [3] | binding result [4] | IC50 (read off the curve) [5] | IC50 [6] | IC50 (read off the curve) [7] |
| --- | --- | --- | --- | --- | --- | --- | --- | --- | --- | --- | --- | --- |
| YW26.6 (antibody, V domains shown, Only the six HVRs are tied to the clone; also called clone 152.26.6) VH: EVQLVESGGGLVQPGGSLRLSCAASGFTFTDNWISWVRQAPGKGLEWVGLINPQSGSSDYADSVKGRFTISADTSKNTAYLQMNSLRAEDTAVYYCARDNFGGYFDYWGQGTLVTVSS VL: DIQMTQSPSSLSASVGDRVTITCRASQDVSTAVAWYQQKPGKAPKLLIYSASFLYSGVPSRFSGSGSGTDFTLTISSLQPEDFATYYCQQSYTGQSTFGQGTKVEIK | 0.15 nM | – | – | – | – | – | – | – | – | – | – | – |
| YW26.20 (antibody, V domains shown) VH: EVQLVESGGGLVQPGGSLRLSCAASGFTFTDNWISWVRQAPGKGLEWVGVINPNSGATEYADSVKGRFTISADTSKNTAYLQMNSLRAEDTAVYYCARDNFGGYFDYWGQGTLVTVSS VL: DIQMTQSPSSLSASVGDRVTITCRASQDVSTAVAWYQQKPGKAPKLLIYSASFLYSGVPSRFSGSGSGTDFTLTISSLQPEDFATYYCQQSYNGPSTFGQGTKVEIK | 0.3 nM | 0.0001 s⁻¹ | 330000 M⁻¹ s⁻¹ | – | – | – | – | – | – | – | – | – |
| anti-DLL4 Mab YW26.82 (antibody, V domains shown) VH: EVQLVESGGGLVQPGGSLRLSCAASGFTFTDNWISWVRQAPGKGLEWVGYISPNSGFTYYADSVKGRFTISADTSKNTAYLQMNSLRAEDTAVYYCARDNFGGYFDYWGQGTLVTVSS VL: DIQMTQSPSSLSASVGDRVTITCRASQDVSTAVAWYQQKPGKAPKLLIYSASFLYSGVPSRFSGSGSGTDFTLTISSLQPEDFATYYCQQSYTGTVTFGQGTKVEIK | 0.09 nM | – | – | no binding (tested: 50 µg/ml) | no binding (tested: 50 µg/ml) | no binding (tested: 50 µg/ml) | no binding (tested: 50 µg/ml) | no binding (tested: 2 µg/ml) | no binding (tested: 2 µg/ml) | ~2 µg/mL | ~12 nM | ~1 µg/mL |
